Values quoted from earlier work as cited in patent US4971962A, “Cephalosporin compounds” (Lucky, Ltd., priority 1988, dated 1990).

Conditions: dog (Beagle), i.v. 20 mg/kg, II Compartment; cited from earlier work

In the case of `CC(C)(O/N=C(\C(=O)N[C@@H]1C(=O)N2C(C(=O)[O-])=C(C[n+]3ccccc3)CS[C@H]12)c1csc(N)n1)C(=O)O` [Ceftazidime, reference compound], the “T1/2 (α)” value is given as 7.27 min and the “T1/2 (β)” value is given as 49.0 min.
